The text below walks through data of patent publication US20170096479A1 (published 2017).

By UniProt entry, the sequences of proteins in these tests, tags left out. Chains listed by the source or under a name are the forms on record and can include a tag or linker.
human VEGF165, UniProt P15692, other isoform, or with tags, fused parts or gaps limits assumed: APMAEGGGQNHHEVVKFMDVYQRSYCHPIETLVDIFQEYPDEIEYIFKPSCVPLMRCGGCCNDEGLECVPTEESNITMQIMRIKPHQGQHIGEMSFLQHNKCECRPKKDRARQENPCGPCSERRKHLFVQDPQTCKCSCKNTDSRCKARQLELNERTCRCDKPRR

In assay [1] the target is human VEGF (hVEGF) (human) (UniProt P15692). Nature of the assay: SPR BIACORE T200, single cycle.
A further assay concerns the target human VEGF (hVEGF) (human, UniProt P15692 181-395). Nature of the assay: cell-based or functional assay.
The target of the next assay is human VEGF165 (human, UniProt P15692-4 27-191). Nature of the assay: cell-based or functional assay.

As a reminder, the Kd is a measure of binding affinity in units of concentration. Higher therefore signals weaker binding. What is called koff is the first-order rate constant of dissociation. Lower therefore signals slow dissociation. By kon is commonly meant a measure of how fast the partners come together.

With G6.31 HC-S5E (Fab), in assay [1], the dissociation constant (Kd) was found to be 0.576 nM, the koff amounted to 0.000454 s⁻¹ and the kon came out at 788000 M⁻¹ s⁻¹.

B1: G6.31 WT (Fab, V domains shown)
VH: EVQLVESGGGLVQPGGSLRLSCAASGFTISDYWIHWVRQAPGKGLEWVAGITPAGGYTYYADSVKGRFTISADTSKNTAYLQMNSLRAEDTAVYYCARFVFFLPYAMDYWGQGTLVTVSS
VL: DIQMTQSPSSLSASVGDRVTITCRASQDVSTAVAWYQQKPGKAPKLLIYSASFLYSGVPSRFSGSGSGTDFTLTISSLQPEDFATYYCQQGYGNPFTFGQGTKVEIK
As to B1, the “IC50 relative to G6.31, VEGF-induced HUVEC migration assay” value with human VEGF (hVEGF) is 1 relative to G6.31.

B2: G6.31 AARR (N94A.F83A.N82aR.Y58R) (Fab, V domains shown)
VH: EVQLVESGGGLVQPGGSLRLSCAASGFTISDYWIHWVRQAPGKGLEWVAGITPAGGYTRYADSVKGRFTISADTSKNTAYLQMRSLRAEDTAVYYCARFVFFLPYAMDYWGQGTLVTVSS
VL: DIQMTQSPSSLSASVGDRVTITCRASQDVSTAVAWYQQKPGKAPKLLIYSASFLYSGVPSRFSGSGSGTDFTLTISSLQPEDAATYYCQQGYGAPFTFGQGTKVEIKR
As for B2, in the assay with human VEGF165, the “qAC50 (equivalent to IC50), pKDR receptor activation assay on KDR-CHO cells” value was found to be 0.932 nM. Besides, in the assay with human VEGF (hVEGF), the “IC50 relative to G6.31, VEGF-induced HUVEC migration assay” value is 0.5 relative to G6.31.
